We go through two compounds from BindingDB's records for patent US10208020 (Oncoarendi Therapeutics, 2019).

By UniProt entry, the sequences of proteins in these tests, tags left out. Where a name states a change or a piece, a line headed by the entry shows the natural chain unless it says otherwise.
UniProt Q13231: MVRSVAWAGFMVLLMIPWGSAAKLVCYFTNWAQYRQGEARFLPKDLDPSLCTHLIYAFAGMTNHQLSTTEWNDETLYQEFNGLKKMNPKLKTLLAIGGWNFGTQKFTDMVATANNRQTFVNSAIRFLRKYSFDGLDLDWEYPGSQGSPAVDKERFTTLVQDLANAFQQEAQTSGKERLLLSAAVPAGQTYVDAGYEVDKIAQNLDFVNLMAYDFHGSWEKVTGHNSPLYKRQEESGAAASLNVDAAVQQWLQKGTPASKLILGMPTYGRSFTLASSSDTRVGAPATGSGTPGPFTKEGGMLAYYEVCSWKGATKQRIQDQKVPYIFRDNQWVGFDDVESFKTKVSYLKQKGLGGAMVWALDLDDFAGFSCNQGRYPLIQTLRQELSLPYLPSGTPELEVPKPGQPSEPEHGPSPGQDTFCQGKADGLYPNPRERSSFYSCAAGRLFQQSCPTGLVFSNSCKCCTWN
UniProt Q9BZP6: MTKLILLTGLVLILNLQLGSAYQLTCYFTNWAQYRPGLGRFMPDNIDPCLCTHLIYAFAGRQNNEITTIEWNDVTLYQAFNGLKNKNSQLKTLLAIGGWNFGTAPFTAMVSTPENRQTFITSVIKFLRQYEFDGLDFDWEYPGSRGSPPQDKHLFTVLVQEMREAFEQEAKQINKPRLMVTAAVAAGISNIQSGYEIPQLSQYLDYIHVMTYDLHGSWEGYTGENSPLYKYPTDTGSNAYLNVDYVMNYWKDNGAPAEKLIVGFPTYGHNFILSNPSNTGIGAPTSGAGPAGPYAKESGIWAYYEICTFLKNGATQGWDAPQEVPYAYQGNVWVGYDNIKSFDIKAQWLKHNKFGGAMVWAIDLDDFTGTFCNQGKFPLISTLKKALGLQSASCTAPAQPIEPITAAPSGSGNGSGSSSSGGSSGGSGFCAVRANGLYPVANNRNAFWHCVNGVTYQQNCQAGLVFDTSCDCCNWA

The target of one test is Chitotriosidase-1 (Homo sapiens, UniProt Q13231). Kind of test: ASSAY_NAME: Human CHIT1 Activity Assay DESCRIPTION: An enzymatic assay with recombinant human CHIT1 was used in order to establish inhibitory activity of the compounds (Boot et al., 2001, JBC: 276). The assay was run in the 96-well plate format, each reaction in the total volume of 100 μL. 4-methylumbelliferyl β-D-N,N′,N″-triacetylchitotriose was used as a substrate for the e.

The target in test [1] is Acidic mammalian chitinase (Homo sapiens, UniProt Q9BZP6). Kind of test: ASSAY_NAME: Human AMCase Activity Assay DESCRIPTION: An enzymatic assay with recombinant human AMCase was used in order to establish inhibitory activity of the compounds (Boot et al., 2001, JBC: 276). The assay was run in the 96-well plate format, each reaction in the total volume of 100 μL. 4-Methylumbelliferyl B-D-N,N′-diacetylchitobioside hydrate was used as a substrate for the enzym.

As for `NC(=O)[C@@H]1CN(C2CCN(c3nnc(N)[nH]3)CC2)C(Cc2ccc(Cl)cc2)CO1` (some centres not stated) [US10208020, Example 8], on Chitotriosidase-1, the IC50 entry was “in the range around 5500 nM”.

Regarding `COC[C@H]1CN(C2CCN(c3nnc(N)[nH]3)CC2)C(Cc2ccc(Cl)cc2)CO1` (some centres not stated) [US10208020, Example 10], the IC50 in test [1] was less than 100 nM.
